Measured values taken from PubChem BioAssay AID504845 (National Center for Advancing Translational Sciences (NCATS), 2011).
Only a part is listed here, and it is no random draw. Results filed as inconclusive are left out. The source made the active and inactive calls. Calls come from the whole dose curve; as a rule, active = well fitted inhibition curve with a large enough effect; inconclusive = small, poorly fitted or top-dose-only effect; inactive = no such curve, though single readings can be large or run the other way.

The chains behind the UniProt entries cited, without tags or fusion partners.
UniProt P49798, whole entry: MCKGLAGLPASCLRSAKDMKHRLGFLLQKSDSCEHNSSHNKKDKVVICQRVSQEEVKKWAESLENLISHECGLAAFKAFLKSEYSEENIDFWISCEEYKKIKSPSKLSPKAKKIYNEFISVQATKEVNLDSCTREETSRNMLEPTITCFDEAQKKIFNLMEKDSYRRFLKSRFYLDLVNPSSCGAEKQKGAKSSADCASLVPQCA

Target: Regulator of G-protein signaling 4 (Homo sapiens) (UniProt P49798)
Assay: Inhibitors of Regulator of G Protein Signaling (RGS) 4: qHTS; note: nearly all actives have a fitted effect of over 75% in size
Conditions: Transcreener GDP fluorescence polarization, RGS4-accelerated GTP hydrolysis; series mostly up to 114 µM; activity change, negative = inhibition: at the top concentration
From the text: G-protein-coupled receptors (GPCRs) are well-established targets for drug discovery and development. Members of the "regulator of G-protein signaling" (RGS)-protein superfamily have recently emerged as critical modulators of specific GPCR signaling pathways. […] Combining specific RGS domain inhibitors with existing GPCR agonists should potentiate cellular responses and could also increase the specificity of action of existing therapeutics. Small molecule modulators of RGS domain activity should also have clinical utility in inhibiting or potentiating the actions of endogenous GPCR agonists. In particular, the diversity of RGS proteins with highly localized and dynamically regulated distributions in the human brain makes this family of proteins attractive targets for pharmacotherapy of central nervous system (CNS) disorders such as Parkinson's disease, schizophrenia, and anxiety.
This assay was used to screen the NIH Molecular Libraries Small Molecule Repository (MLSMR) in order to identify a small molecule that inhibits RGS4.
NIH Chemical Genomics Center [NCGC]
NIH Molecular Libraries Probe Centers Network [MLPCN]
Assay Submitter (PI): David Siderovski, University of North Carolina Chapel Hill (School of Medicine)
Two microliters of 500nM (2x working concentration) is dispensed into black medium-binding solid-bottom Kalypsys plates. Then with the Kalypsys pintool 23nl of control and compounds are transferred; the control compound is […] CCG-4986 (working concentration). After a 10 minute incubation at room temperature 2ul of antibody is added with the Kalypsys dispenser; (-)RGS4/Transcreener GDP solution in columns 3 and 4 which consisted of 10nM (2x working concentration) Alexa633, 20uM GTP, and 20 ug/ml GDP antibody and (+)RGS4/Transcreener GDP solution in columns 1,2, and 5 to 48 which consists of 900nM RGS4 (2x working concentration), 10nM Alexa633, 20 ug/ml GDP antibody. The plate is centrifuged at 1000 RPM for 15 seconds to remove any possible bubbles and then incubated for 5 minutes at ambient room temperature. An initial fluorescent polarization read (620 nm/688 nm) is performed on the Envision before the plate is incubated for 90 minutes at 30 deg C at a relative humidity of 80%. The plate is once more centrifuged at 1000 RPM for 15 seconds and another Envision fluorescent polarization (620 nm/688 nm) read is carried out.
% is set by controls: 0 for no effect and ±100 for the full control effect; potency is the fitted concentration of half-maximal effect.

| Compound | activity change, negative = inhibition | Potency |
| --- | --- | --- |
| O=[N+]([O-])c1cc([N+](=O)[O-])c(-c2cnn(-c3ccccc3)c2)c([N+](=O)[O-])c1 | inactive: -11% |  |
| O=[N+]([O-])c1cc([N+](=O)[O-])c(-n2nnc3ccccc32)c([N+](=O)[O-])c1 | inactive: 22.6% |  |
| CN1CCCCC1COC(=O)C1(O)c2ccccc2CCc2ccccc21 (centres undefined) | inactive: 0.626% |  |
| COc1ccccc1OP(C)(=O)Nc1c(C)cccc1C (centres undefined) | inactive: -16% [at 56.9 µM] |  |
| CP(=O)(Nc1ccc(SC(F)(F)F)cc1)Oc1ccccc1 (centres undefined) | inactive: -7.98% |  |
| CCCOc1ccc(NP(C)(=O)Oc2ccc(Cl)cc2)cc1 (centres undefined) | inactive: -7.84% |  |
| O=[N+]([O-])c1cc([N+](=O)[O-])c(Nc2nnnn2CCO)c([N+](=O)[O-])c1 | inactive: 7.58% |  |
| CC1=C2N=C(C=C3N=C(C(C)=C4[N-][C@@](C)([C@@H]5N=C1[C@](C)(CCC(=O)NC[C@@H](C)OP(=O)([O-])O[C@H]1[C@@H](O)[C@@H](n6cnc7cc(C)c(C)cc76)O[C@@H]1CO)[C@H]5CC(N)=O)[C@@](C)(CC(N)=O)[C@@H]4CCC(N)=O)[C@@](C)(CC(N)=O)[C@@H]3CCC(N)=O)C(C)(C)[C@@H]2CCC(N)=O.[C-]#N.[Co+3] | inactive: 0% |  |
| CC1=NCCc2c1[nH]c1ccccc21.O=[N+]([O-])c1cc([N+](=O)[O-])c(O)c([N+](=O)[O-])c1 | inactive: 7.26% |  |
| Cc1cc(C)cc(OP(C)(=O)Nc2ccccn2)c1 (centres undefined) | inactive: -16.9% |  |
| Cc1ccc(C)c(NP(C)(=O)Oc2ccccc2)c1 (centres undefined) | inactive: 31.7% |  |
| COc1ccccc1OP(C)(=O)Nc1cccc(Br)c1 (centres undefined) | inactive: -7.87% [at 11.4 µM] |  |
| Cc1cc(C)cc(OP(C)(=O)Nc2ccc(C)cc2C)c1 (centres undefined) | inactive: -18.5% |  |
| CCOC(=O)c1ccc(NP(C)(=O)Oc2cc(C)cc(C)c2)cc1 (centres undefined) | inactive: -6.34% |  |
| CCN(CC)CCCOC(=O)C(O)(c1ccccc1)c1ccccc1 | inactive: 29% |  |
| CCOC(=O)c1ccc(NP(C)(=O)Oc2ccccc2)cc1 (centres undefined) | inactive: -8.48% |  |
| Cc1ccc(NP(C)(=O)Oc2ccccc2)c(C)c1 (centres undefined) | inactive: 11.5% |  |
| COc1ccccc1OP(C)(=O)Nc1ccc(C)cc1 (centres undefined) | inactive: -5.03% |  |
| COc1ccc(OP(C)(=O)Nc2cccc(F)c2)cc1 (centres undefined) | inactive: -4.83% [at 11.4 µM] |  |
| COc1ccccc1OP(C)(=O)Nc1cc(Cl)ccc1C (centres undefined) | inactive: 3.56% |  |
| Cc1cc(C)cc(OP(C)(N)=O)c1 (centres undefined) | inactive: -4.05% |  |

| Compound | activity change, negative = inhibition | Potency |
| --- | --- | --- |
| O=[N+]([O-])c1cc([N+](=O)[O-])c(Nc2cccnc2)c([N+](=O)[O-])c1 | inactive: -21.2% |  |
| Cc1cccc(C)c1OP(C)(N)=O (centres undefined) | inactive: -12.3% |  |
| CC(C)(C)c1ccc(OP(C)(=O)Nc2ccc(SC(F)(F)F)cc2)cc1 (centres undefined) | inactive: -29.7% |  |
| O=[N+]([O-])c1ccc2c(c1)C=Nc1ccccc1O2 | inactive: 2.92% |  |
| COc1ccccc1OP(C)(=O)Nc1ccccc1 (centres undefined) | inactive: 1.63% |  |
| CP(=O)(Nc1ccccc1Br)Oc1ccccc1 (centres undefined) | inactive: -8.73% |  |
| CCOP(C)(=S)SCC(=O)NC(C)C(=O)O (centres undefined) | inactive: 11.9% |  |
| O=[N+]([O-])c1cc([N+](=O)[O-])c(O)c([N+](=O)[O-])c1.c1ccc(Oc2ccncc2)cc1 | inactive: 6.29% |  |
| CCOC(=O)c1ccc(NP(C)(=O)Oc2ccc(OC)cc2)cc1 (centres undefined) | inactive: -4% |  |
| CP(=O)(Nc1ccccn1)Oc1ccc(Cl)cc1 (centres undefined) | inactive: -4.96% |  |
| CP(=O)(Oc1ccccc1)OC(c1ccccc1)C(F)(F)F (centres undefined) | inactive: 9.3% |  |
| CP(=O)(Nc1ccc(SC(F)(F)F)cc1)Oc1ccc(Cl)cc1 (centres undefined) | inactive: 32.1% |  |
| Cc1cccc(C)c1OP(C)(=O)Nc1ccc(SC(F)(F)F)cc1 (centres undefined) | inactive: -21.5% |  |
| Cc1cc(C)cc(OP(C)(=O)Nc2ccc(SC(F)(F)F)cc2)c1 (centres undefined) | inactive: -5.91% |  |
| CCc1ccc(OP(C)(=O)N2CCN(c3ccc([N+](=O)[O-])cc3)CC2)cc1 (centres undefined) | inactive: 12.1% |  |
| CP(=O)(NC(=O)Nc1ccccc1)Oc1ccccc1 (centres undefined) | inactive: 10.7% |  |
| CP(=O)(Nc1ccc(Cl)cc1)Oc1ccc(F)cc1 (centres undefined) | inactive: -18.5% |  |
| CC(C)(C)c1ccc(OP(C)(=O)O)cc1 | inactive: -15.2% |  |
| COc1ccccc1OP(C)(=O)Nc1ccccc1Br (centres undefined) | inactive: -35.5% |  |
| CN(C)C(=O)c1c([N+](=O)[O-])cc([N+](=O)[O-])cc1[N+](=O)[O-] | inactive: -24.2% [at 56.9 µM] |  |
| N#[O+].[C-]#N.[C-]#N.[C-]#N.[C-]#N.[C-]#N.[Fe+2].[Na+].[Na+] |  | active: 18.9 µM |

| Compound | activity change, negative = inhibition | Potency |
| --- | --- | --- |
| COc1ccc(OP(C)(=O)Nc2ccc(Br)cc2)cc1 (centres undefined) | inactive: -12.5% |  |
| CCN(CC)CC(O)COC(=O)C(O)(c1ccccc1)C1CCCCC1 (centres undefined) | inactive: -3.39% |  |
| CCc1ccc(OP(C)(=O)Nc2cccnc2)cc1 (centres undefined) | inactive: -24.9% |  |
| CP(=O)(Oc1ccccc1)N1CCOC1=O (centres undefined) | inactive: -12.3% |  |
| O=C(OCCCN1CCCC1)C(O)(c1ccccc1)C1CCCCC1 (centres undefined) | inactive: 8.15% |  |
| COc1ccccc1OP(C)(=O)Nc1c(C)n(C)n(-c2ccccc2)c1=O (centres undefined) | inactive: 18.6% |  |
| Nc1ccc2c(ccc3cccnc32)n1.O=[N+]([O-])c1cc([N+](=O)[O-])c(O)c([N+](=O)[O-])c1 | inactive: 4.65% |  |
| CP(=O)(OC12CC3CC(CC(C3)C1)C2)OC12CC3CC(CC(C3)C1)C2 | inactive: 2.65% |  |
| CCOC(=O)c1ccc(NP(C)(=O)Oc2ccc(Cl)cc2)cc1 (centres undefined) | inactive: -19.3% |  |
| CP(=O)(OCCOc1ccccc1)OCCOc1ccccc1 | inactive: 2.78% |  |
| CP(=O)(Nc1ccc(Cl)cc1Cl)Oc1ccccc1 (centres undefined) | inactive: 39.1% |  |
| CCCCCCCCCCCCCCCC1C[N+](C)(C)CCOP(C)(=O)O1 (centres undefined) | inactive: -50.9% |  |
| Cc1cc(C)cc(OP(C)(=O)Nc2cccc(C(F)(F)F)c2)c1 (centres undefined) | inactive: -13.7% |  |
| COc1ccc(OP(C)(=O)Nc2ccccc2Br)cc1 (centres undefined) | inactive: -15.9% |  |
| CN(C(=O)Cc1ccc(Cl)c(Cl)c1)[C@H]1CCCC[C@@H]1N1CCCC1 | inactive |  |
| COc1ccccc1OP(C)(=O)Nc1ccc(C)c(C)c1 (centres undefined) | inactive: -1.68% |  |
| O=[N+]([O-])c1cc([N+](=O)[O-])c(Nc2ccccn2)c([N+](=O)[O-])c1 | inactive: -44.4% |  |
| Cc1c(NP(C)(=O)Oc2ccc(C(C)C)cc2)c(=O)n(-c2ccccc2)n1C (centres undefined) | inactive: -11.8% |  |
| CCc1ccc(OP(C)(=O)O)cc1 | inactive: 22.6% |  |
| COc1ccccc1OP(C)(=O)Nc1ccc(C)cc1C (centres undefined) | inactive: 14.4% |  |
| CP(=O)(Nc1ccccn1)Oc1ccccc1 (centres undefined) | inactive: 24.8% |  |

| Compound | activity change, negative = inhibition | Potency |
| --- | --- | --- |
| COc1ccccc1OP(C)(=O)Nc1ccc(Br)cc1 (centres undefined) | inactive: 5.45% |  |
| CN(C)CCOC(=O)C(O)(c1ccccc1)C1CCCC1 (centres undefined) | inactive: 11.9% |  |
| COc1ccc(OP(C)(=O)Nc2ccccn2)cc1 (centres undefined) | inactive: -4.46% |  |
| O=C(OCCN1CCN(CCOCc2ccccc2)CC1)C(O)(c1ccccc1)c1ccccc1 | inactive: 0% |  |
| CC(C)c1ccc(OP(C)(=O)Nc2ccc(SC(F)(F)F)cc2)cc1 (centres undefined) | inactive: 16.9% |  |
| CP(=O)(Nc1ccccc1F)Oc1ccccc1 (centres undefined) | inactive: -32% |  |
| CCN(CC)CCCOC(=O)C(O)(c1ccccc1)C1CCCCC1 (centres undefined) | inactive: -8.69% |  |
| Cc1c([N+](=O)[O-])cc([N+](=O)[O-])c(Br)c1[N+](=O)[O-] | inactive: 4.67% |  |
| CCCCCOc1ccc(NP(C)(=O)Oc2ccc(Cl)cc2Cl)cc1 (centres undefined) | inactive: 2.82% |  |
| CP(=O)(Nc1ccccc1)Oc1ccc(F)cc1 (centres undefined) | inactive: 7.83% |  |
| COc1ccc(OP(C)(=O)Nc2ccc(SC(F)(F)F)cc2)cc1 (centres undefined) | inactive: -4.51% |  |
| CCOC(=O)c1ccc(NP(C)(=O)Oc2ccc(F)cc2)cc1 (centres undefined) | inactive: -12% |  |
| Cc1cc(-c2cccc3ccccc23)c(C)cn1.O=[N+]([O-])c1cc([N+](=O)[O-])c(O)c([N+](=O)[O-])c1 | inactive: -9.51% |  |
| O=[N+]([O-])c1ccc(OP2(=O)COCCO2)cc1 (centres undefined) | inactive: 28.1% |  |
| Cc1c(C(c2ccc3c(c2)OCO3)c2c(C)n(C)n(-c3ccccc3)c2=O)c(=O)n(-c2ccccc2)n1C.O=[N+]([O-])c1cc([N+](=O)[O-])c(O)c([N+](=O)[O-])c1 | inactive: -6.53% |  |
| COc1ccc(OP(C)(=O)Nc2cccc(Br)c2)cc1 (centres undefined) | inactive: 12.6% |  |
| CN(C)CCOC(=O)C(O)(c1ccccc1)C1CCCCC1 (centres undefined) | inactive: -14.1% |  |
| CP(=O)(Nc1ccc2c(c1)OCCO2)Oc1ccccc1 (centres undefined) | inactive: 24.8% |  |
| Cc1ccccc1NP(C)(=O)Nc1ccccc1C | inactive: -11.2% |  |
| CP(=O)(Nc1ccc(SC(F)(F)F)cc1)Oc1ccc(F)cc1 (centres undefined) | inactive: 6.17% |  |
| CCOP(C)(=S)SCC(=O)NC(C)(CC)C(=O)O (centres undefined) | inactive: 10.4% |  |
